Measured values as given in patent US9527913B2, “Humanized pan-HER antibody compositions” (Symphogen A/S, priority 2012, dated 2016).

Columns and labels:
[1] = tested on: patient-derived xenograft models of pancreatic cancer; design: key to Cet. resp. (20 mg/kg): PD: Progressive disease; settings: cited from earlier work
[2] = tested on: fixed parental HN5 cells and resistant clones HN5 CR2, HN5 CR6, HN5 CR13, HN5 CR14; assay: Cetuximab binding to fixed cells; type: cell-based, human; settings: resistant clones compared to parental cells
[3] = tested on: EGFR, HER2 and HER3 in H292 cells; assay: Western blot of EGFR, HER2 and HER3 in whole cell lysates (Example 6); type: cell-based, human; settings: H292, 20 μg/ml, 48 hour
HN5 cells = assay: WST-1 metabolic activity, parental and cetuximab resistant cells (Example 5); type: cell-based, human; settings: 96 hours
Protocol: (§1) Trastuzumab resistant OE19 cells and pertuzumab resistant MDA-MB-175-VII cells were established by exposing parental cells to increasing concentrations of trastuzumab [10-100 μg/ml] and pertuzumab [1-50 μg/ml] respectively, during a period of eight months and 12 months respectively. Cells were split once or twice a week in order to keep cells in exponential growth. The level of resistance was tested every month in a WST-1 viability assay as described in Example 2, until a pool of resistant cells was established. Single cell clones of trastuzumab resistant OE19 cells were generated through limited dilution cloning of the acquired trastuzumab resistant pool of OE19 cells as described in Example 11.
(§2) Metabolic activity was determined after 96 hours incubation using a similar WST-1 assay as described in Example 2.

[4] = tested on: parental HN5 cells and clones HN5 CR2, HN5 CR6, HN5 CR13, HN5 CR14; assay: WST-1 viability assay of cetuximab resistant HN5 clones (Example 11); type: cell-based, human; settings: HN5 CR2, CR6, CR13, CR14 versus parental; 96 hours
Protocol: Cells were split twice a week in order to keep cells in exponential growth. […] 0.5 cells/well were plated in 384 well plates. Growth and proliferation of single cell colonies was followed using Novartis Cellavista Imager. The most resistant individual clones, HN5 CR2, HN5 CR6, HN5 CR13, and HN5 CR14, were selected for further characterization (FIG. 36).

OE19 cells = assay: WST-1 metabolic activity, parental and trastuzumab resistant cells (Example 5); type: cell-based, human; settings: 96 hours
Protocol: as §1, §2

Substance | Cet. resp. (20 mg/kg) ([1]; model ST191) | Cet. resp. (20 mg/kg) ([1]; model ST204) | Cet. resp. (20 mg/kg) ([1]; model ST334) | Cet. resp. (20 mg/kg) ([1]; model ST385) | half-maximal binding (EC50 value) [2] | maximal binding [2] | EGFR, HER2 and HER3 levels in whole cell lysates [3] | metabolic activity (HN5 cells; cetuximab resistant HN5 cells) | metabolic activity (HN5 cells; parental HN5 cells) | viability of resistant clones [4] | Other (resistance) ([1]; model ST334) | metabolic activity (OE19 cells; parental OE19 cells) | metabolic activity (OE19 cells; trastuzumab resistant OE19 cells)
cetuximab | PD | PD | PD | PD | unaltered | decreased | HER2 upregulation | unaltered | reduced | resistant clones were viable with increasing concentrations | – | – | –
trastuzumab | – | – | – | – | – | – | – | – | – | – | resist. | reduced | unaltered

Like-named read-outs stand apart in the source and are kept apart here.
